Reference: paper PMC4277633 (Iranian Journal of Pharmaceutical Research : IJPR, 2015)

Tested on: Human Umbilical Vein Endothelial (HUVEC) cell line

With `c1ccc2c(c1)CCN2` [Compound 1d, indoline] the “selectivity indices (SI)” value was at least 10.
